Values of other authors, collected in patent publication US11007356B2, “Ingestible device for delivery of therapeutic agent to the gastrointestinal tract” (Progenity, Inc., priority 2018, dated 2021).

Settings: self-administration of 360,000 units, medical observation; cited from earlier work

Dalteparin
outcome of overdose: no notable sequelae
